Assay results reported in EP3492483A1, “COMPOUNDS AND METHODS FOR TREATING BACTERIAL INFECTIONS” (The Washington University, priority 2009, dated 2011).

Protein sequences, listed by entry. Tags and fused reporters are not part of them.
UniProt Q1R2J4, entry or part of it: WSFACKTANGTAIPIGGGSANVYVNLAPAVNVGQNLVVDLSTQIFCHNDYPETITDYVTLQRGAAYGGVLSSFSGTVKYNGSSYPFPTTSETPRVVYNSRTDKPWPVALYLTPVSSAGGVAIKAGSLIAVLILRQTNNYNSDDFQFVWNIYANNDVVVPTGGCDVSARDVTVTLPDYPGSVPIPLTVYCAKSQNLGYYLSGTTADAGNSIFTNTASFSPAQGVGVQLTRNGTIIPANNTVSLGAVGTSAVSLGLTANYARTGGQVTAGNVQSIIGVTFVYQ

Molecular target: T1, FimH (Escherichia coli, UniProt Q1R2J4)
T1 construct: endogenous in cells; host or cells: type 1 piliated UPEC bacteria
Experiment: cell-based
Set-up: species or system UPEC

## CCCCO[C@H]1O[C@H](CO)[C@@H](O)[C@H](O)[C@@H]1O [Butylαman, α-D-butylmannoside, reference compound]
  EC50: 125 µM

## CC(=O)Nc1ccccc1OC1OC(CO)C(O)C(O)C1O (centres unmarked) [Compound 3, N-[2-[3,4,5-trihydroxy-6-(hydroxymethyl)tetrahydropyran-2-yl]oxyphenyl]acetamide]
  EC50: 125 µM
